Article PMC5080911 (Journal of medicinal chemistry, 2016)

Test system: tubulin
Assay: Tubulin polymerization assay
Details: 3 µM, 37 °C, monitored 1 h

CC(=O)O[C@H]1C(=O)[C@@]2(C)[C@H]([C@H](OC(=O)c3ccccc3)[C@]3(O)C[C@H](OC(=O)[C@H](O)[C@@H](NC(=O)c4ccccc4)c4ccccc4)C(C)=C1C3(C)C)[C@]1(OC(C)=O)CO[C@@H]1C[C@@H]2O [PTX, Paclitaxel, reference compound]
time to reach maximum/plateau of tubulin polymerization: ~ 16 min
